In this data set the target is Cytochrome P450 3A4 (Homo sapiens, UniProt P08684). As to the kind of experiment: Inhibition of human CYP3A4 using midazolam as substrate at 10 uM by LC-MS/MS analysis.

Protein sequences, listed by entry. Tags and fused reporters are not part of them. Residues count along the entry.
UniProt P08684, 2-503 limits assumed: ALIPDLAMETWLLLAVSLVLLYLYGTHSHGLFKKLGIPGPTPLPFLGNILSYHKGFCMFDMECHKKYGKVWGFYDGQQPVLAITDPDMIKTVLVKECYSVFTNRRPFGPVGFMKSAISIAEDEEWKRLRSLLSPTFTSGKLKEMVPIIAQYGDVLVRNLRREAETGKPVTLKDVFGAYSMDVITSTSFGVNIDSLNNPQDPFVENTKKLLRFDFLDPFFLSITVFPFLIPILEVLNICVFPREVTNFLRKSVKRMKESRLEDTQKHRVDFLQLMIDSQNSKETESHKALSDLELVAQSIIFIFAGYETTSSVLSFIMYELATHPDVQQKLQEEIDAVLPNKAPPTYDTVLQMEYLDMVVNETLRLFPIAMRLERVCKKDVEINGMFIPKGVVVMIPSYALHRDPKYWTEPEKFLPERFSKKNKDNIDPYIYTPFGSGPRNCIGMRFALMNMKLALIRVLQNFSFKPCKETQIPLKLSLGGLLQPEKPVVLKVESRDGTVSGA

Only a part of the results on these compounds is given; other tests are left out.

As to `CCC(=O)N(CC(CC)N1CCC(c2ccccc2)CC1)c1ccccn1` (stereo unspecified), the inhibition (INH) came out at 13.1%.
